# AlphaSeq binding of Ab-91 heavy chain variants to a spike HR2 peptide

From the AlphaSeq antibody data of Engelhart et al. 2022 (doi:10.1038/s41597-022-01779-4), copy in the FLAb collection.

The target is the same throughout: PDVDLGDISGINAS, from the HR2 region of SARS-CoV-2 spike.

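Phage display of a naive human antibody library on the peptide gave the parent. Variants in AAYL51 differ from the parent at up to three CDR positions; double and triple changes were sampled at random. Affinity was read by AlphaSeq, a pooled yeast mating assay with surface-displayed partners. Binding brings cells together so that they mate, and sequencing counts the barcode pairs among the diploids. Each replicate has its own calibration line, from reference interactions of the BCL2 family. Mating was done three times.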

Each scFv is VL, a 15-residue (Gly4Ser)3 linker, VH, as in the parent Ab-91, and differs from it in the CDRs of the heavy chain only.
VL: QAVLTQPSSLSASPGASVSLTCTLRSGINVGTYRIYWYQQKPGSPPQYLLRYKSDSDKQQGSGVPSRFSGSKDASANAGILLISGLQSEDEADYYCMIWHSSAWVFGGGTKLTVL
VH: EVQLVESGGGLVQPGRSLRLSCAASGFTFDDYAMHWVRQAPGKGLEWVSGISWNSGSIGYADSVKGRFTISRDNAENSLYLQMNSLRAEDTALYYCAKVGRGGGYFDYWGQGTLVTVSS

The whole VH of each variant is written out. Scale: log10 of Kd in nM, estimated from mating counts; low values are strong binders. A mean of the replicates is given; it leaves out those without a signal. "ND" means that the variant was in the library but no mating with the target was seen in that replicate; the authors take this as a sign of poor binding, and no number exists. As a blank, each scFv also met three strains without target: over library AAYL51, 21% of these pairings were detected, typically at 4.54 and seldom below 3.26. For each scFv, signals with the empty controls are counted beside the result, with their mean in brackets.

| # | VH | replicates, log10 nM | mean log10 Kd (nM) | control signals |
|---|---|---|---|---|
| 1 | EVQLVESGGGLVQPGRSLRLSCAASGFTFDDYAMNWVRQAPGKGLEWVSGISWNSGSIGFTDSVKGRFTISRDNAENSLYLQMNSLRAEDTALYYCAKVGRGGGYFDYWGQGTLVTVSS | ND 4.82 ND | 4.82 | 0 of 9 |
| 2 | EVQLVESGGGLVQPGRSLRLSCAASGFTIDDYAMHWVRQAPGKGLEWVSGISWNEGSIGCADSVKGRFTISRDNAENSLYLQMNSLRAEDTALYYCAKVGRGGGYFDYWGQGTLVTVSS | 3.93 ND ND | 3.93 | 0 of 9 |
| 3 | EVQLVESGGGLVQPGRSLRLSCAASGFTWDDYAMHWVRQAPGKGLEWVSGISWNSGSIGYADSVKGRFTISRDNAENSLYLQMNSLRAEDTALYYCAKVGRGGGKFDYWGQGTLVTVSS | 3.46 4.25 4.11 | 3.94 | 4 of 9 (4.57) |
| 4 | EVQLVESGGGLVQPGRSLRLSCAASGFTFDDYAMHWVRQAPGKGLEWVSGISWNSGFIGYADWVKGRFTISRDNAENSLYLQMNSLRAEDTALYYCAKVGRGGGYFDHWGQGTLVTVSS | 1.83 1.80 1.31 | 1.65 | 1 of 9 (4.72) |
| 5 | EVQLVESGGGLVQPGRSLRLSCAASGFTFDDYAMHWVRQAPGKGLEWVSGISWNSGSHGYADSVKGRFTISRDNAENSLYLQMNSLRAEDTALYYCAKVGRGMGYSDYWGQGTLVTVSS | 2.08 2.13 2.99 | 2.40 | 3 of 9 (4.73) |
| 6 | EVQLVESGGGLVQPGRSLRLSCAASGFTFDDYAKHWVRQAPGKGLEWVSGISWNIGSIGYADSVKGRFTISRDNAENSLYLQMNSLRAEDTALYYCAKVGREGGYFDYWGQGTLVTVSS | ND ND ND | ND | 2 of 9 (4.54) |
| 7 | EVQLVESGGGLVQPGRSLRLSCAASGFTFDDYAMHWVRQAPGKGLEWVSAISWNSGSMGYADSVKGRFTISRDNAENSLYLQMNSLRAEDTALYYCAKVGRGGGYFDYWGQGTLVTVSS | ND ND ND | ND | 1 of 9 (2.90) |
| 8 | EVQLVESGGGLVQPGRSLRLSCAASGFTFDDYGHHWVRQAPGKGLEWVSGISWNSGSIGYADSVKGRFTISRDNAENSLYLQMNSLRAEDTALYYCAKVLRGGGYFDYWGQGTLVTVSS | ND ND 3.30 | 3.30 | 0 of 9 |
| 9 | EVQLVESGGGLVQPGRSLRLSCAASGHTFDDYAMHWVRQAPGKGLEWVSGISWNSGSKGYPDSVKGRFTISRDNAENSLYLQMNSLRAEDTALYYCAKVGRGGGYFDYWGQGTLVTVSS | ND ND ND | ND | 1 of 9 (4.08) |
| 10 | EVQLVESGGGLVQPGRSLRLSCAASGFTFDDYAMHWVRQAPGKGLEWVSGISWNSGSIIHADSGKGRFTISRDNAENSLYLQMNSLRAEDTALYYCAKVGRGGGYFDYWGQGTLVTVSS | ND ND ND | ND | 1 of 9 (3.43) |
| 11 | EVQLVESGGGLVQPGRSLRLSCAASGFCFDDYAMHWVRQAPGKGLEWVSGISWNSGSIGYADSVKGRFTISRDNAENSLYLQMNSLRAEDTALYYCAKVGRLDGYFDYWGQGTLVTVSS | 5.17 ND ND | 5.17 | 2 of 9 (4.33) |
| 12 | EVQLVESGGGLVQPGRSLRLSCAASGFTTDDYAMHWVRQAPGKGLEWVSGISWNSGSIGYADSVKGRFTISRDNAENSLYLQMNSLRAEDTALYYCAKVGRWGGYQDYWGQGTLVTVSS | ND ND ND | ND | 0 of 9 |
| 13 | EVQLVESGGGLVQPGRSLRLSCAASGITFDDYAMHWVRQAPGKGLEWVSGISWNSGSIGYADSVKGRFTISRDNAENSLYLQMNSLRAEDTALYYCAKVGRGGGDFDYWGQGTLVTVSS | ND ND ND | ND | 0 of 9 |
| 14 | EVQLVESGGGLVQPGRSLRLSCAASGFTFDDYAMHWVRQAPGKGLEWVSGISWNSGSIGYADSVKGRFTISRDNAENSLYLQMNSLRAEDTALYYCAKVGNGGMYFDYWGQGTLVTVSS | 4.94 ND ND | 4.94 | 3 of 9 (5.10) |
| 15 | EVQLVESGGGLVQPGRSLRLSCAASGFTFDDYAMHWVRQAPGKGLEWVSGISWNSISIGSADSYKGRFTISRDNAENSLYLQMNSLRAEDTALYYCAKVGRGGGYFDYWGQGTLVTVSS | ND 5.99 ND | 5.99 | 2 of 9 (4.46) |
| 16 | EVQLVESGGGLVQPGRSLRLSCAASGFTFDDWAEHWVRQAPGKGLEWVSGQSWNSGSIGYADSVKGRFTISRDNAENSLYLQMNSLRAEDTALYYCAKVGRGGGYFDYWGQGTLVTVSS | ND 4.87 ND | 4.87 | 0 of 9 |
| 17 | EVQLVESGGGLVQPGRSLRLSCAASGFTFDDYAMHWVRQAPGKGLEWVSGISWNSGSMNYCDSVKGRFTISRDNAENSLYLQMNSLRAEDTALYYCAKVGRGGGYFDYWGQGTLVTVSS | ND ND 3.71 | 3.71 | 0 of 9 |
| 18 | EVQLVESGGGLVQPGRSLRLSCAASGFTKDMYAMHWVRQAPGKGLEWVSGISWNSGSIGYADSVKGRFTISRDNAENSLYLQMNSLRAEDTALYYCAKVGRGGGYFDNWGQGTLVTVSS | 3.53 3.61 4.61 | 3.92 | 0 of 9 |
| 19 | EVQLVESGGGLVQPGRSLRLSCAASGFTFDDYAEHWVRQAPGKGLEWVSGISWNEGSIGYADSVKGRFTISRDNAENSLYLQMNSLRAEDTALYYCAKVGRGGGFFDYWGQGTLVTVSS | ND ND 3.35 | 3.35 | 1 of 9 (4.02) |
| 20 | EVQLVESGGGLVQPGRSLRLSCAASGFTFDDYAMHWVRQAPGKGLEWVSGIEWNSYSIGYADSVKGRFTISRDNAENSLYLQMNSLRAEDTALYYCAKVGRGGGYFDYWGQGTLVTVSS | 5.37 5.02 ND | 5.19 | 2 of 9 (4.84) |
| 21 | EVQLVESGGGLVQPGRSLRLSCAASGFTFDDYAMHWVRQAPGKGLEWVSGISWNSASIGYASSVKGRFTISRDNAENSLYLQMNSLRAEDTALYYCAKVGRGGGYFDHWGQGTLVTVSS | 1.84 1.47 1.15 | 1.49 | 0 of 9 |
| 22 | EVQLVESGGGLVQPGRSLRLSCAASGFTFDDYAMHWVRQAPGKGLEWVSWISWNSGSIGYADSVSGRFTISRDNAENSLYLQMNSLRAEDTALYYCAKVGRRGGYFDYWGQGTLVTVSS | 4.10 4.76 5.12 | 4.66 | 6 of 9 (4.29) |
| 23 | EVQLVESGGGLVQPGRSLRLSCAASGFTFDDYAMCWVRQAPGKGLEWVSGISWNSYSIGYADSVKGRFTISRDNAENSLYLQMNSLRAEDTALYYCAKVGRGGGYFDHWGQGTLVTVSS | 4.55 ND 4.91 | 4.73 | 5 of 9 (4.28) |

From the list, the first 3 with no signal in any replicate:

| VH | replicates, log10 nM | mean log10 Kd (nM) | control signals |
|---|---|---|---|
| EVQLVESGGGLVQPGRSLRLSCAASGFTFDDYAKHWVRQAPGKGLEWVSGISWNIGSIGYADSVKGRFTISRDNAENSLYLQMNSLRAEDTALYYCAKVGREGGYFDYWGQGTLVTVSS | ND ND ND | ND | 2 of 9 (4.54) |
| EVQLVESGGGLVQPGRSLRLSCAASGFTFDDYAMHWVRQAPGKGLEWVSAISWNSGSMGYADSVKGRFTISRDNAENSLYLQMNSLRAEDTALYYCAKVGRGGGYFDYWGQGTLVTVSS | ND ND ND | ND | 1 of 9 (2.90) |
| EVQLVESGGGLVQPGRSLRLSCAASGHTFDDYAMHWVRQAPGKGLEWVSGISWNSGSKGYPDSVKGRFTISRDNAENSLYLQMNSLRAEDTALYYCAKVGRGGGYFDYWGQGTLVTVSS | ND ND ND | ND | 1 of 9 (4.08) |

In this assay the parent's reference entry averaged 1.86; its copy inside this library read 0.88.